{"source": "paper PMC4828713", "about": "“New potential binding determinant for hERG channel inhibitors” (Scientific Reports, 2016)", "key": {"[1]": {"biological_target": "wild type hERG (WT) channels (Homo sapiens, UniProt Q12809)", "assay": "Two-microelectrode voltage clamp, tail current inhibition of WT hERG expressed in Xenopus laevis oocytes", "settings": "from concentration-response relationship", "text": "(§1) For hERG measurements, the oocytes were clamped at a holding potential of −100 mV and depolarized to +20 mV allowing activation and inactivation. […] Channel block was estimated from tail current inhibition."}, "Y652A-hERG": {"biological_target": "Y652A-hERG (Homo sapiens, UniProt Q12809, Y652A)", "assay": "Two-microelectrode voltage clamp, tail current inhibition of mutant Y652A hERG in Xenopus laevis oocytes", "settings": "from concentration-response relationship", "text": "as §1"}}, "data": [{"smiles": "COc1cc(N)c(Cl)cc1C(=O)NC1CCN(CCCOc2ccc(F)cc2)CC1OC", "note": "(centres unmarked) [Cisapride, cisapride]", "values": [{"measurement": "WT nH (hill coefficient)", "setting": "[1]", "result": "0.9 ± 0.03"}, {"measurement": "Y652A-hERG nH (hill coefficient)", "setting": "Y652A-hERG", "result": "1.03 ± 0.1"}]}]}
